The results in this text go back to ChEMBL document CHEMBL6092147, “Design of inhibitors of SARS-CoV-2 papain-like protease deriving from GRL0617: Structure-activity relationships” (Bioorg Med Chem, 2024).

Broadly, the IC50 is the concentration that gives 50% inhibition.

For this assay, the target named is Replicase polyprotein 1ab (Severe acute respiratory syndrome coronavirus 2, UniProt P0DTD1). The experiment in a line: Inhibition of SARS-CoV-2 papain-like protease.

With `COC(=O)/C=C/C(=O)NNC(=O)CCc1ccccc1C(=O)N[C@H](C)c1cccc2ccccc12`, the IC50 is 90 nM.
